{"sequences": {"note": "Protein sequences, listed by entry. Tags and fused reporters are not part of them.", "UniProt P35462, whole entry": "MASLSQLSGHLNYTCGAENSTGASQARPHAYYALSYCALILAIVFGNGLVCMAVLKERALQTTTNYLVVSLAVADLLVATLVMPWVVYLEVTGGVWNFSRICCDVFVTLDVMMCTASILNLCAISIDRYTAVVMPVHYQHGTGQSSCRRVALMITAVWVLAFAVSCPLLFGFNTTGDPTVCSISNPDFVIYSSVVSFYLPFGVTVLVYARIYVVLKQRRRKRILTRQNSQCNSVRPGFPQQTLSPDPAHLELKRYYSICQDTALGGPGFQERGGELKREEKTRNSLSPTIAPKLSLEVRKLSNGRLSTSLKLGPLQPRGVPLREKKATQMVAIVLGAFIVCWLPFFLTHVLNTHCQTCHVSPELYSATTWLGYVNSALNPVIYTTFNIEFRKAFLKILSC"}, "source": "ChEMBL document CHEMBL4052607", "about": "(J Med Chem, 2017)", "target": "D(3) dopamine receptor (Homo sapiens, UniProt P35462)", "assay": "Competitive antagonist activity at D3 receptor (unknown origin) expressed in CHOK1 cells assessed as induction of rightward shift in the dopamine dose response curve for beta-arrestin recruitment after 90 mins by DiscoveRx PathHunter assay", "type": "cell-based", "settings": "read-out: pA2 (converted)", "data": [{"smiles": "CCN1CCCC1CNC(=O)c1cc(S(N)(=O)=O)ccc1OC", "note": "(stereo unspecified) [SULPIRIDE]", "values": [{"measurement": "Kb", "value": 39.8, "unit": "nM"}]}]}
